7 molecules from BindingDB's records for 27377327 can be followed below.

By UniProt entry, the sequences of proteins in these tests, tags left out. Residues count along the entry.
UniProt P22303, 32-614 limits assumed: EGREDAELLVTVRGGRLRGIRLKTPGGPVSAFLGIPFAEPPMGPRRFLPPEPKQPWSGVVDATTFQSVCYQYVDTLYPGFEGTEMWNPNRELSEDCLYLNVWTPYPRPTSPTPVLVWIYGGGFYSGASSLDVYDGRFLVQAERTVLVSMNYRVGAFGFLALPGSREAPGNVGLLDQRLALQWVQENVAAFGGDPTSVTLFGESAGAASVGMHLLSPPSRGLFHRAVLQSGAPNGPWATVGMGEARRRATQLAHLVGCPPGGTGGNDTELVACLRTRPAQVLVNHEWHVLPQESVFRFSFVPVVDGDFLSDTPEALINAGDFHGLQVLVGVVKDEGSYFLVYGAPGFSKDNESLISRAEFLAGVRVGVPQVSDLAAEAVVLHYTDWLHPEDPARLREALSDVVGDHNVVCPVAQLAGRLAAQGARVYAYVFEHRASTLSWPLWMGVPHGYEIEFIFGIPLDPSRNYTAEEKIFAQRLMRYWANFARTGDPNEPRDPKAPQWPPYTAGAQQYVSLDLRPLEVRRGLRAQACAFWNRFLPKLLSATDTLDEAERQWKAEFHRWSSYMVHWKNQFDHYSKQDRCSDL
UniProt P06276, 29-602 limits assumed: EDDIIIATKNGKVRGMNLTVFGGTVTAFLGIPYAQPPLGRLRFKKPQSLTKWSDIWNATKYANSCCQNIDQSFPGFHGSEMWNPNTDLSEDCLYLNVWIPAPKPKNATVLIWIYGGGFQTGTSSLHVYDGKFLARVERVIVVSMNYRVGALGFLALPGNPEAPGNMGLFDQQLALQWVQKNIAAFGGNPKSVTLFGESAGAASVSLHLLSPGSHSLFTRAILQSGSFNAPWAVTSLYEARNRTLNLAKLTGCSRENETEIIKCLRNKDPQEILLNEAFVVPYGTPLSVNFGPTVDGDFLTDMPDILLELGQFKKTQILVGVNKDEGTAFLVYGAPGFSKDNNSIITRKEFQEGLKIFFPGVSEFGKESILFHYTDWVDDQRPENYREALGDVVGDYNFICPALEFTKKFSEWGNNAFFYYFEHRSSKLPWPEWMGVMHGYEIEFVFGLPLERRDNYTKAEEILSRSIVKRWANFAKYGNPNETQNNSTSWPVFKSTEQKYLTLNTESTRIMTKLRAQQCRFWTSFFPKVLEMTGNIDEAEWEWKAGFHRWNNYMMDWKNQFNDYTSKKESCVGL

Experiment [1] has as its target Acetylcholinesterase (Homo sapiens, UniProt P22303). Briefly: ASSAY_NAME: ChEMBL_1590871 (CHEMBL3830392) DESCRIPTION: Inhibition of human AChE assessed as acetylthiocholine hydrolysis preincubated for 10 mins followed by addition of substrate measured after 2 mins by spectrophotometric method.
The target of experiment [2] is Cholinesterase (Homo sapiens, UniProt P06276). Kind of experiment: ASSAY_NAME: ChEMBL_1590872 (CHEMBL3830393) DESCRIPTION: Inhibition of human plasma BChE assessed as butyrylthiocholine hydrolysis preincubated for 10 mins followed by addition of substrate measured after 2 mins by spectrophotometric method.

Regarding `CCC1OCc2c[n+](C)c(C)c(OC(=O)N(C)C)c2CO1` (centres undefined), the 50% inhibitory concentration (IC50) in experiment [1] amounted to 280 µM; in experiment [2], 800 µM.

In the case of `Cc1c(OC(=O)N(C)C)c2c(c[n+]1C)COC(C)(C)OC2`, the IC50 in experiment [1] was 500 µM; in experiment [2] it was 1190 µM.

Consider `Cc1c(OC(=O)N(C)C)c2c(c[n+]1C)COC(C(C)(C)C)OC2` (centres undefined), for which the IC50 in experiment [1] stood at 110 µM; in experiment [2], 310 µM.

Turning to `Cc1c(OC(=O)N(C)C)c2c(c[n+]1C)COC(C)OC2` (centres undefined), the IC50 in experiment [1] turned out to be 150 µM; in experiment [2], 1030 µM.

With `Cc1c(OC(=O)N(C)C)c2c(c[n+]1C)COCOC2`, the IC50 in experiment [1] worked out at 130 µM; in experiment [2], 400 µM.

As to `CCCC1OCc2c[n+](C)c(C)c(OC(=O)N(C)C)c2CO1` (centres undefined), the values for the IC50 in experiment [1] and in experiment [2] were 140 µM and 400 µM, respectively.

On to `Cc1c(OC(=O)N(C)C)c2c(c[n+]1C)COC(C(C)C)OC2` (centres undefined), for which the IC50 in experiment [1] was found to be 260 µM; in experiment [2], 900 µM.
